Target: full-length human PIKFYVE (GST-PIKFYVE) (Homo sapiens, UniProt Q9Y2I7, L932S/Q1183K/Q995L/S1033A/S696N/T998S)
Test: PIKfyve biochemical assay (ADP-Glo Kinase assay, Carna Biosciences)
Details: read-out: hPIKfyve IC50

Sequences of proteins named here, by UniProt entry; tags and fusion partners are left off.
UniProt Q9Y2I7, whole entry S696N/L932S/Q995L/T998S/S1033A/Q1183K: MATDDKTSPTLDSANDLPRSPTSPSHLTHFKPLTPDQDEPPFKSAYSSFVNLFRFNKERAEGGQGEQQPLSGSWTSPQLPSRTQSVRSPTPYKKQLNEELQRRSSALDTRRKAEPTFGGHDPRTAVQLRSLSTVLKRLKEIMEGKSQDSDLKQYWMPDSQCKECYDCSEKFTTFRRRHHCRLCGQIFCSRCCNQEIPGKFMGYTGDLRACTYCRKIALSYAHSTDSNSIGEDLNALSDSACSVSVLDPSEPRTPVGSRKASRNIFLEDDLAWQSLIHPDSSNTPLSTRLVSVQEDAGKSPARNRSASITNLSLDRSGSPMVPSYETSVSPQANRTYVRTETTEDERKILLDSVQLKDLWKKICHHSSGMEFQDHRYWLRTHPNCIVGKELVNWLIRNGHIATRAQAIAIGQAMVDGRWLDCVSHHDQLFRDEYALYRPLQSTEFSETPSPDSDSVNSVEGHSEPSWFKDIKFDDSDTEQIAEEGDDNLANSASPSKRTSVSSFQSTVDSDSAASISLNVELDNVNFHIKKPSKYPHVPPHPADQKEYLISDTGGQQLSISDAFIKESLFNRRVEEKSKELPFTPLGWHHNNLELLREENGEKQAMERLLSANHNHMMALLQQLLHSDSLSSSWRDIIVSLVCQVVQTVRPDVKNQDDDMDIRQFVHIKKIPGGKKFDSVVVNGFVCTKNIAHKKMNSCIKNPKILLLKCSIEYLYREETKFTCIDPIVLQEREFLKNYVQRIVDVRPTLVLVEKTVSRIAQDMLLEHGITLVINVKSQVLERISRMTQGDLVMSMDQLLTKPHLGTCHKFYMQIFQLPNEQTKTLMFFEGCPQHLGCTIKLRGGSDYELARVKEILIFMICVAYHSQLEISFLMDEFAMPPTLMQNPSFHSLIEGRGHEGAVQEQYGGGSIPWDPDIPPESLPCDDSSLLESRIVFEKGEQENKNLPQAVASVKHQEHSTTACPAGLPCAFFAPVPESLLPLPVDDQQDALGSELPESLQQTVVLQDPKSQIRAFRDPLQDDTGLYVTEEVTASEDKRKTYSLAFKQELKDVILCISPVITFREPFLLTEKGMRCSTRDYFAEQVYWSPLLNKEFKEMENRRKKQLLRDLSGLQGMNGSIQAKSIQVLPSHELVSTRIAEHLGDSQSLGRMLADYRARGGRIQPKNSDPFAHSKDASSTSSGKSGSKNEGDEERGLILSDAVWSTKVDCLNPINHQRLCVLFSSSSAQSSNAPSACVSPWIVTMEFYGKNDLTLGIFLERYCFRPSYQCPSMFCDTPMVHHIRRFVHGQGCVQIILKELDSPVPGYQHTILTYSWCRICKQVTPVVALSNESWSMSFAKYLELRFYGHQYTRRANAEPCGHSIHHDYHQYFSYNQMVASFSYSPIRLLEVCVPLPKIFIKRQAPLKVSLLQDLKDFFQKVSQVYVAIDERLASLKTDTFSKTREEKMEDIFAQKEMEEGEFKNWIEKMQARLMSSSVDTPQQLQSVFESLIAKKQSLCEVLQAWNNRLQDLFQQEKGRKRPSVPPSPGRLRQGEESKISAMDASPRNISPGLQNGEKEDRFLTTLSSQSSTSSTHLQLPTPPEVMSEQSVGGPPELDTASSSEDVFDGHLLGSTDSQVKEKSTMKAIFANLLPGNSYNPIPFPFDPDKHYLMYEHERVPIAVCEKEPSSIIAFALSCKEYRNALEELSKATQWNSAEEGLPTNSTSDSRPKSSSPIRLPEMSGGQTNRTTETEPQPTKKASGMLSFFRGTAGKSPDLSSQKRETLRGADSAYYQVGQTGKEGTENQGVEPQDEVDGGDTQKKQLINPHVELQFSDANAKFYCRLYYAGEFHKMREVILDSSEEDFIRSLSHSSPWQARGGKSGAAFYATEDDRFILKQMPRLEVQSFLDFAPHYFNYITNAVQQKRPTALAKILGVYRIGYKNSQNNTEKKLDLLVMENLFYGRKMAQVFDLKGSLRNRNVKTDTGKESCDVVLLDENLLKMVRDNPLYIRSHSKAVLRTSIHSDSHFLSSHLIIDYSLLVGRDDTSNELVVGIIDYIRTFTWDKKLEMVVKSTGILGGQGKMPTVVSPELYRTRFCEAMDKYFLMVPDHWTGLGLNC

c1ccc(N2CCc3c(COc4cccnc4)nc(N4CCOCC4)nc32)cc1
IC50: 100 to 1000 nM

Source: patent US20230271965A1, “BICYCLIC HETEROARENES AND METHODS OF THEIR USE” (Kineta, Inc., priority 2020, published 2023)
